# Test results: PubChem BioAssay AID1903 (Southern Research Specialized Biocontainment Screening …, 2009)
# Chains of the proteins cited; added tags and fusions are not shown.
# UniProt P03070, whole entry: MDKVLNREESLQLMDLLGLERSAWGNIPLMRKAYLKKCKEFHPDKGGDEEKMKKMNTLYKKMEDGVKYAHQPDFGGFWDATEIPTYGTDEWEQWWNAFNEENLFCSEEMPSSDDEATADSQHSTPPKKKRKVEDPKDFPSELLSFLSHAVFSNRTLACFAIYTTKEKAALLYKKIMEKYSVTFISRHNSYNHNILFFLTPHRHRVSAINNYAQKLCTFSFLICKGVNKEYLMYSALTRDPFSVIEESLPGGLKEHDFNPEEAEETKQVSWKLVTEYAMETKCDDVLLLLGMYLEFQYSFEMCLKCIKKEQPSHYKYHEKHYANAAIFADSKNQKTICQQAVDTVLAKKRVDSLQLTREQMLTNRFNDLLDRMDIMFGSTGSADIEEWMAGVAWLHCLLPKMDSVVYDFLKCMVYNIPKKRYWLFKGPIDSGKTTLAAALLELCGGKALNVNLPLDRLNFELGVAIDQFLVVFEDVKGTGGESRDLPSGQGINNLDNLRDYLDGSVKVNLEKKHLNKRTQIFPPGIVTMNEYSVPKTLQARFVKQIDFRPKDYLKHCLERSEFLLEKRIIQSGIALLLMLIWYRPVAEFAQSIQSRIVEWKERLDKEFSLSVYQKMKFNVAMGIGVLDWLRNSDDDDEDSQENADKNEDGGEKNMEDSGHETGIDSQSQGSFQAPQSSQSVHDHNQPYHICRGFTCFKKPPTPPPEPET
# Some of the results follow. Results with a measured potency or affinity are listed apart. Some of these compounds have results that are not shown, active ones among them. The source made the active and inactive calls. How the calls were made is not given here.
# Target: Large T antigen (Simian virus 40) (UniProt P03070)
# Assay: SV40 large T antigen inhibitors, biochemical (AID 1903)
# Conditions: SV40 large T antigen ATPase/helicase inhibition assay; at 20 µM; active compounds read high
row,Structure (SMILES),inhibition
1,COc1ccc(Br)c(C(=O)NCC2(N3CCCCC3)CCCCC2)c1,inactive: 12%
2,CN(C)c1cccc(C(=O)NCC2(N(C)C)CCCCC2)c1,inactive: 8.28%
3,CC(C)Oc1ccc(C(=O)NCC2(N(C)C)CCCCC2)cc1,inactive: 0.37%
4,O=C(OC1CN2CCC1CC2)C(CO)(c1ccccc1)c1ccccc1 (centres undefined),inactive: 1.24%
5,COc1ccc(Cl)cc1C(=O)NCC1(N(C)C)CCCCC1,inactive: 17.5%
6,COc1cccc(C(=O)NCC2(N3CCCCC3)CCCCC2)c1,inactive: 7.37%
7,O=C(NCC1(N2CCCCC2)CCCCC1)c1cccc(Cl)c1,inactive: 5.94%
8,CN(C)C1(CNC(=O)c2ccc(Br)cc2)CCCCC1,inactive: 11.4%
9,COc1cc(C(=O)NCC2(N(C)C)CCCCC2)c([N+](=O)[O-])cc1OC,inactive: -3.49%
10,O=C(NCC1(N2CCCCC2)CCCCC1)c1cc(F)c(F)cc1Cl,inactive: 6.02%
11,C=CCN1CCN(CCOC(=O)C(O)(c2ccccc2)c2ccccc2)CC1,inactive: 24.3%
12,O=C(NCC1(N2CCCCC2)CCCCC1)c1cccc(Br)c1,inactive: 6.84%
13,CCN1CCCC(OC(=O)C2(O)c3ccccc3C=Cc3ccccc32)C1 (centres undefined),inactive: -1.29%
14,Cc1cc(C(=O)NCC2(N3CCCCC3)CCCCC2)ccc1[N+](=O)[O-],inactive: -2.16%
15,COc1ccc(C(=O)NCC2(N(C)C)CCCCC2)cc1,inactive: 1.77%
16,CN(C)c1ccc(C(=O)NCC2(N(C)C)CCCCC2)cc1,inactive: 3.87%
17,CN(C)C1CCCC1OC(=O)C(O)(c1ccccc1)c1ccccc1 (centres undefined),inactive: 24.5%
18,Cc1ccccc1C(=O)NCC1(N2CCCCC2)CCCCC1,inactive: -0.14%
19,CC(C)N1C(=O)CC2(CCN(CCOC(=O)C(O)(c3ccccc3)c3ccccc3)CC2)C1=O,inactive: -0.195%
20,COc1cc(SC)ccc1C(=O)NCC1(N(C)C)CCCCC1,inactive: 4.48%
21,CCN(CC)CC(C)C(C)OC(=O)C(O)(c1ccccc1)c1ccccc1 (centres undefined),inactive: 24.2%
22,Cc1ccc(C(=O)NCC2(N3CCCCC3)CCCCC2)cc1,inactive: 3.88%
23,O=C(NCC1(N2CCCCC2)CCCCC1)c1cc([N+](=O)[O-])ccc1Cl,inactive: 6.63%
24,CN1[C@@H]2CC[C@H]1CC(OC(=O)C(O)(c1ccccc1)c1ccccc1)C2 (some centres undefined),inactive: 22.7%
